Where “and” joins values, the source holds several entries; their conditions need not be identical. Equal values may be shown once.

Assay [1] has as its target T1, KRAS(G12C) (Homo sapiens, UniProt P01116, G12C). The assay can be described thus: BLI binding to KRAS(G12C). The arrangement: KRAS4B residues 1-174 containing G12C, G12V, G12D, G13D, Q61L, WT; His6 (N, cleaved yes); Avi-tag (N, cleaved yes); made in house; host or cells: E. coli BL21(DE3).
In assay [2] the target is T2, KRAS(WT) (Homo sapiens, UniProt P01116).
T2 construct: KRAS4B residues 1-174 containing G12C, G12V, G12D, G13D, Q61L, WT; made in house; host or cells: E. coli BL21(DE3) with pBirA
The assay is described as follows: BLI binding to KRAS(WT). In general terms: BLI is a label-free optical method that tracks binding on a fibre tip over time.

Assay [3] addresses T3, KRAS(G12V) (Homo sapiens, UniProt P01116, G12V).
T3 construct: KRAS4B residues 1-174 containing G12C, G12V, G12D, G13D, Q61L, WT; His6 (N, cleaved yes); Avi-tag (N, cleaved yes); made in house; host or cells: E. coli BL21(DE3)
The assay can be described thus: Yeast display binding titration, KRAS(G12V). The conditions noted are these: GDP-bound.

The target in assay [4] is T1, KRAS(G12C). The assay can be described thus: Yeast display binding titration, KRAS(G12C). The arrangement: KRAS4B residues 1-174 containing G12C, G12V, G12D, G13D, Q61L, WT; His6 (N, cleaved yes); Avi-tag (N, cleaved yes); made in house; host or cells: E. coli BL21(DE3). The conditions noted are these: GDP-bound.
The target of assay [5] is T4, KRAS(G12S) (Homo sapiens, UniProt P01116, G12S).
T4 construct: KRAS4B residues 1-174 containing G12C, G12V, G12D, G13D, Q61L, WT; His6 (N, cleaved yes); Avi-tag (N, cleaved yes); made in house; host or cells: E. coli BL21(DE3)
The assay is described as follows: BLI binding to KRAS(G12S). The conditions noted are these: GTPγS, equilibrium mode.

Assay [6] concerns the target T3, KRAS(G12V). The assay is described as follows: BLI binding to KRAS(G12V). As to conditions: nucleotide state GTPγS.
Assay [7] concerns the target T2, KRAS(WT). The assay is described as follows: Yeast display binding titration, KRAS(WT).
Assay [8] deals with T5, HRAS(G12C) 1-166 (Homo sapiens, UniProt P01112, G12C).
T5 construct: HRAS(WT) and HRAS(G12C) (residues 1-166) used for crystallization; His6 (N, cleaved yes); yeast SUMO (N, cleaved yes); made in house; host or cells: E. coli BL21(DE3)
The assay can be described thus: BLI binding to HRAS(G12C) 1-166.

The target of assay [9] is T6, KRAS(G12A) (Homo sapiens, UniProt P01116, G12A).
T6 construct: KRAS4B residues 1-174 containing G12C, G12V, G12D, G13D, Q61L, WT; His6 (N, cleaved yes); Avi-tag (N, cleaved yes); made in house; host or cells: E. coli BL21(DE3)
The assay is described as follows: BLI binding to KRAS(G12A). The conditions noted are these: GTPγS, equilibrium mode.

Assay [10] deals with T7, HRAS(WT) 1-166 (Homo sapiens, UniProt P01112).
T7 construct: HRAS(WT) and HRAS(G12C) (residues 1-166) used for crystallization; His6 (N, cleaved yes); yeast SUMO (N, cleaved yes); made in house; host or cells: E. coli BL21(DE3)
The assay is described as follows: BLI binding to HRAS(WT) 1-166.

What is called Kd is a measure of binding affinity in units of concentration. Higher therefore signals weaker binding. Consider “VSSVPTKLEVVAATPTSLLISWDAPAVTVFFYIIAYGETGHGVGAFQAFRVPGSKSTATISGLKPGVDYTITVYARGYSKQGPYKPSPISINYRT [12VC3]”, for which the Kd in [1] (BLI sensorgrams of 12VC3, n=3) was found to be 0.021 ± 0.0016 µM; in assay [2] (BLI sensorgrams of 12VC3, n=3), 1.78 ± 0.748 µM.
On to “VSSVPTKLEVVAATPTSLLISWDAPAVTVFFYVITYGETGHGVGAFQAFKVPGSKSTATISGLKPGVDYTITVYARGYSKQGPYKPSPISINYRT [12VC1]”, for which the “apparent KD” value in assay [3], in assay [4], in assay [7] (GDP-bound) and in assay [7] (GTPγS-bound) was “too weak to yield meaningful KD” each time. For the same sequence, the Kd in [5] was 0.686 µM; in assay [6], ~0.1 µM and 0.101 µM; in assay [8] (GTPγS bound, measured in duplicate) it was 0.0283 µM and 0.0359 µM; in assay [1] (BLI, nucleotide state GTPγS), 0.0247 µM; in assay [9], 0.718 µM; in assay [2] (BLI, GTPγS, equilibrium mode), 9.6 µM. In addition, the KD result in [8] (GDP-bound) and in assay [10] was “too high to be determined” in each case.

The values are drawn from patent publication US12049483B2, “Selective and noncovalent inhibitors of oncogenic RAS mutants” (New York University, priority 2020, dated 2024).
